# CycPeptMPDB entries from one study

Values of Taechalertpaisarn et al. 2022, doi:10.1021/acs.jmedchem.2c00010, as listed in CycPeptMPDB.

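The data file gives no further conditions (lipid, pH, time, direction or concentration), and values from different papers need not be comparable. The list need not hold all peptides of the study. Peptides that the database sets to -10, its floor, are left out.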

PAMPA is the parallel artificial membrane permeability assay, which has no cells and reads passive diffusion.
Permeability is given as log10 of P in cm/s; higher (less negative) is more permeable.

CC(C)C[C@@H]1NC(=O)[C@H](c2ccccc2)NC(=O)[C@@H](CC(C)C)NC(=O)[C@H](CCC(=O)N2CCCC2)NC(=O)[C@@H](CC2CCCCC2)NC(=O)[C@H]2CCCN2C1=O has PAMPA -5.49 (log10 cm/s).
CC(C)C[C@@H]1NC(=O)[C@@H](CC(C)C)NC(=O)[C@H](C)NC(=O)[C@@H](CCC(=O)N2CCCC2)NC(=O)[C@H]2CCCN2C(=O)[C@H](CC(C)C)NC1=O has PAMPA -6.68 (log10 cm/s).
CC(C)C[C@@H]1NC(=O)[C@H](Cc2ccc3ccccc3c2)NC(=O)[C@@H](CC(C)C)NC(=O)[C@H](CCC(=O)N2CCCC2)NC(=O)[C@@H](C)NC(=O)[C@H]2CCCN2C1=O has PAMPA -6.29 (log10 cm/s).
CC(C)C[C@@H]1NC(=O)[C@@H](CCC(=O)N2CCCC2)NC(=O)[C@H]2CCCN2C(=O)[C@H](CC(C)C)NC(=O)[C@H](Cc2ccc3ccccc3c2)NC(=O)[C@@H](CC(C)C)NC1=O has PAMPA -5.09 (log10 cm/s).
CC(C)C[C@@H]1NC(=O)[C@@H](CC(C)C)NC(=O)[C@@H](CC(C)C)NC(=O)[C@@H](CC(C)C)NC(=O)[C@H]2CCCN2C(=O)[C@H](CCC(=O)N2CCCC2)NC1=O has PAMPA -6.20 (log10 cm/s).
CC[C@@H]1NC(=O)[C@@H](CC(C)C)NC(=O)[C@H](CCC(=O)N2CCCC2)NC(=O)[C@@H](CC(C)C)NC(=O)[C@H]2CCCN2C(=O)[C@H](CC(C)C)NC1=O has PAMPA -7.46 (log10 cm/s).
CC(C)C[C@@H]1NC(=O)[C@H](c2ccccc2)NC(=O)[C@@H](CC(C)C)NC(=O)[C@H](CCC(=O)N2CCCC2)NC(=O)[C@@H](C)NC(=O)[C@H]2CCCN2C1=O has PAMPA -6.83 (log10 cm/s).
CC(C)C[C@@H]1NC(=O)[C@@H](CC(C)C)NC(=O)[C@@H](CC(C)C)NC(=O)[C@@H](CCC(=O)N2CCCC2)NC(=O)[C@@H](CC(C)C)NC(=O)[C@H]2CCCN2C1=O has PAMPA -5.99 (log10 cm/s).
CC[C@@H]1NC(=O)[C@@H](CC(C)C)NC(=O)[C@H](CC2CCCCC2)NC(=O)[C@@H](CCC(=O)N2CCCC2)NC(=O)[C@H]2CCCN2C(=O)[C@H](CC(C)C)NC1=O has PAMPA -5.69 (log10 cm/s).
CC(C)C[C@@H]1NC(=O)[C@H](c2ccccc2)NC(=O)[C@@H](CC(C)C)NC(=O)[C@H](CC2CCCCC2)NC(=O)[C@@H](CCC(=O)N2CCCC2)NC(=O)[C@H]2CCCN2C1=O has PAMPA -4.85 (log10 cm/s).

Again, the 2 entries with the lowest PAMPA:

CC[C@@H]1NC(=O)[C@@H](CC(C)C)NC(=O)[C@H](CCC(=O)N2CCCC2)NC(=O)[C@@H](CC(C)C)NC(=O)[C@H]2CCCN2C(=O)[C@H](CC(C)C)NC1=O is reported with PAMPA -7.46 (log10 cm/s).
CC(C)C[C@@H]1NC(=O)[C@H](c2ccccc2)NC(=O)[C@@H](CC(C)C)NC(=O)[C@H](CCC(=O)N2CCCC2)NC(=O)[C@@H](C)NC(=O)[C@H]2CCCN2C1=O is reported with PAMPA -6.83 (log10 cm/s).